# Curated experimental data: properties

Source: data files of OPERA 2.9 (Mansouri et al.), github.com/kmansouri/OPERA.

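OPERA's authors assembled the values from existing databases and did not measure them anew. One number stands for a compound and property, with no spread given. Method, purity and exact conditions of the single measurements are not given. The measured form (salt, isomer or mixture) is not always the one drawn. Some entries may be limits or estimates that an upstream database listed as plain numbers.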

The melting point is given in degrees Celsius. Boiling points are in °C, nominally at 760 mmHg. logP is the log10 of the octanol-water partition coefficient; higher is more lipophilic. Solubility in water is on a log10 molar scale (set defined at 25 °C). Vapor pressure is log10 of mmHg; the set covers 15 to 30 °C, mostly 20 to 25 °C. Cells with "n/a" have no entry in this list.

SMILES | name | MP (°C) | bp (°C) | logP | log S (log10 mol/L) | log vapor pressure (log10 mmHg)
NS(=O)(=O)c1cc2c(s1)S(=O)(=O)CCC2O (configuration not stated) | n/a | 168 | n/a | n/a | -1.355 | n/a
CC1=[N+](CCCCS(=O)(=O)[O-])c2ccc3ccccc3c2C1(C)C | n/a | n/a | n/a | n/a | -2.208 | -9.698
CCC(N)CO (configuration not stated) | 1-Butanol, 2-amino- | n/a | n/a | -0.049 | n/a | -0.361
CCOP(=O)(Cc1cc(C(C)(C)C)c(O)c(C(C)(C)C)c1)OCC | n/a | n/a | 317.8 | 2.9 | -4.435 | -7.886
Cc1[nH]c2ccccc2c1/N=N/c1cc(Cl)c(S(=O)(=O)NCCS(=O)(=O)[O-])cc1Cl.[Na+] | n/a | n/a | n/a | 0.83 | -3.663 | n/a
C=CC(=O)Oc1ccc(C(=O)Oc2ccc(C(=O)O[C@@H]3CO[C@H]4[C@@H]3OC[C@H]4OC(=O)c3ccc(OC(=O)c4ccc(OC(=O)C=C)cc4)c(OC)c3)cc2OC)cc1 | n/a | 80 | n/a | 5.02 | -6.747 | -7.974
CC=C(C(=O)O)c1ccc([N+](=O)[O-])cc1 | alpha-Ethylidene-4-nitrobenzeneacetic acid | 101.8 | n/a | 2 | -2.546 | -7.569
Nc1ccc(-c2ccc(N)c3c2C(=O)c2ccccc2C3=O)c2c1C(=O)c1ccccc1C2=O | Pigment Red 177 | n/a | n/a | -0.245 | -7.25 | n/a
C[C@]12C[C@@H](O)[C@H]3[C@@H]([C@H]4C[C@]5(C#N)[C@@H](C(=O)CC[C@]35C)C4=O)[C@@H]1CC[C@@]21CCC(=O)O1 | n/a | 345.7 | n/a | n/a | -4.012 | n/a
CC(C)C(=O)Nc1nc(-c2ccc(O)cc2O)cs1 | n/a | 244.7 | n/a | 2.066 | -4.066 | -10.78
COC(=O)C(C)CCC(=O)N(C)C (configuration not stated) | Methyl 5-(dimethylamino)-2-methyl-5-oxopentanoate | n/a | 280 | 0.39 | n/a | n/a
CC(C)(C)C(=O)OCCc1ccccc1 | 2-Phenylethyl pivalate | n/a | n/a | 3.86 | -3.675 | -2.021
CN(C)C1=[O+]CCC1(c1ccccc1)c1ccccc1.[Br-] | n/a | n/a | n/a | -2.3 | n/a | -4.624
CCOC(=O)C(C#N)=C(c1ccccc1)c1ccccc1 | Ethyl 2-cyano-3,3-diphenylacrylate | n/a | n/a | n/a | -7.744 | -5.767
CC(CO)CC(C)c1ccccc1 (configuration not stated) | 2-Methyl-4-phenylpentanol | n/a | n/a | 3.01 | -2.348 | -2.643
COc1ccc(OC)c(NC(C)=O)c1 | Acetamide, N-(2,5-dimethoxyphenyl)- | n/a | n/a | 1.1 | -1.592 | n/a
CCN(CC)CCCN | 1,3-Propanediamine, N,N-diethyl- | n/a | n/a | 0.36 | n/a | 0.175
CCOP(=O)([O-])Cc1cc(C(C)(C)C)c(O)c(C(C)(C)C)c1.CCOP(=O)([O-])Cc1cc(C(C)(C)C)c(O)c(C(C)(C)C)c1.[Ca+2] | n/a | n/a | n/a | -0.1 | -2.462 | -15.1
CO[Si](OC)(OC)C1CCCC1 | CYCLOPENTYLTRIMETHOXYSILANE | -80.15 | n/a | n/a | n/a | 1.111
CCCCCCCCCC[C@H]1O[C@H]1CCCCC(C)C | cis-7,8-Epoxy-2-methyloctadecane | n/a | n/a | n/a | -8.17 | -3.678
CC(=CCC1CC=C(C)C1(C)C)CO (stereo in doubt) | n/a | n/a | n/a | 4.191 | -3.515 | -2.995
O=C1OC(=O)c2cc(Oc3ccc4c(c3)C(=O)OC4=O)ccc21 | 5,5'-Oxybis(2-benzofuran-1,3-dione) | n/a | n/a | n/a | -1.912 | -7.011
Oc1ccc2ccccc2c1C=NN=Cc1c(O)ccc2ccccc12 | n/a | 320 | n/a | 6.269 | n/a | n/a
CC(C)(C=NCC1(C)CC(N=CC(C)(C)CN2CCOCC2)CC(C)(C)C1)CN1CCOCC1 (configuration not stated) | n/a | 45.7 | 288 | 2.1 | n/a | -4.245
COc1ccccc1Oc1c(NS(=O)(=O)c2ccc(C(C)(C)C)cc2)nc(-c2ncccn2)nc1OCCO | Bosentan | n/a | n/a | 3.7 | -4.764 | n/a
CC(C)(C)c1ccc(Nc2ccc(Nc3ccc(C(C)(C)C)cc3)c3c2C(=O)c2c(O)ccc(O)c2C3=O)cc1 | n/a | 258 | n/a | 10.7 | -8.653 | n/a
Cc1ccsc1C(=CCCN1CCC[C@@H](C(=O)O)C1)c1sccc1C | Tiagabine | n/a | n/a | 2.6 | -4.25 | n/a
COc1ccc2c(c1)CCCC2=CCC1(C)C(=O)CCC1=O | n/a | 79 | n/a | 3.8 | -4.828 | n/a
CCCCCOC=O | Pentyl formate | n/a | n/a | 2.786 | -1.504 | n/a
CCNC(=O)C(=O)O[C@@H]1C[C@H](C)CC[C@H]1C(C)C | n/a | n/a | 255.4 | n/a | -3.148 | -4.576
CCOc1ccc(Nc2ccc(S(=O)(=O)N(C)C)cc2[N+](=O)[O-])cc1 | n/a | n/a | n/a | 1.386 | -4.262 | n/a

A selection of 3 entries from above:

| SMILES | name | MP (°C) | bp (°C) | logP | log S (log10 mol/L) | log vapor pressure (log10 mmHg) |
|---|---|---|---|---|---|---|
| COc1ccc2c(c1)CCCC2=CCC1(C)C(=O)CCC1=O | n/a | 79 | n/a | 3.8 | -4.828 | n/a |
| CCCCCCCCCC[C@H]1O[C@H]1CCCCC(C)C | cis-7,8-Epoxy-2-methyloctadecane | n/a | n/a | n/a | -8.17 | -3.678 |
| Cc1ccsc1C(=CCCN1CCC[C@@H](C(=O)O)C1)c1sccc1C | Tiagabine | n/a | n/a | 2.6 | -4.25 | n/a |